Molecular target: SpiCA3 (Stylophora pistillata, UniProt A0A1B0Y357)
Assay type: biochemical
Conditions: authors' grading of the KI values of Table 1

The chains behind the UniProt entries cited, without tags or fusion partners.
UniProt A0A1B0Y357, entry or part of it: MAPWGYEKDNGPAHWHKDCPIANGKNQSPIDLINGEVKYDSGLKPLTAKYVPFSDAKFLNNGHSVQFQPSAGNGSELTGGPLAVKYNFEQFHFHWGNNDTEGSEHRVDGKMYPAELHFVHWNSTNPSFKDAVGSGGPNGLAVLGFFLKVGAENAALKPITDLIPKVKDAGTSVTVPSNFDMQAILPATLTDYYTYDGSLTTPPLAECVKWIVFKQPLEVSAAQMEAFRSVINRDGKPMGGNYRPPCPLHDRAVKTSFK

For CCN[C@H]1C[C@H](C)S(=O)(=O)c2sc(S(N)(=O)=O)cc21 [DZA, Dorzolamide], the “SpiCA3 inhibition, in words” value was “low potency inhibitors”.
